Measured affinities in a library of Ab-14 heavy chain variants

From the AlphaSeq antibody data of Engelhart et al. 2022 (doi:10.1038/s41597-022-01779-4), copy in the FLAb collection.

Binding partner: SARS-CoV-2 spike HR2 peptide, sequence PDVDLGDISGINAS.

Each scFv is VH, a (GGGGS)3 linker, VL, as in the parent Ab-14, and differs from it in the CDRs of the heavy chain only.
VH: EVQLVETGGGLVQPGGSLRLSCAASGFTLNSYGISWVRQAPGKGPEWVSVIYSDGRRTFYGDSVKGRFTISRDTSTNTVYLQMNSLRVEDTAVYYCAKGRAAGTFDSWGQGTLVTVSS
VL: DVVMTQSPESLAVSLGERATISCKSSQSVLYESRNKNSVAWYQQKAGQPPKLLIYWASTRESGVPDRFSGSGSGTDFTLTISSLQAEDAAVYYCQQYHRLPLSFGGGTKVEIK

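The parent was found by panning a naive human phage display library on the peptide. The library (AAYL49) carries one to three amino acid substitutions per variant, with no insertions or deletions. Affinity was read by AlphaSeq, a pooled yeast mating assay with surface-displayed partners. Mating (16 h, 30 °C) was followed by selection of diploids and sequencing of their barcodes. The ratio of observed to expected reads was calibrated, replicate by replicate, on BCL2-family standards whose Kd was known from biolayer interferometry. Mating was done three times.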

Substitutions are numbered in sequence along the VH above, starting at 1 (not Kabat). All variants listed here change G26 of the VH, counted from its first residue. Values are log10 of the apparent Kd in nM; lower means stronger binding. Averages over replicates are reported, and they cover detected replicates only. Where no diploid with the target was found in that replicate, the entry reads "nd": below detection, most likely a poor binder, though not proof of it. Nonspecific signal, from three strains lacking the peptide, appeared in 15% of pairings of library AAYL49, centred on 4.06 (5% of these signals below 2.83); values are not corrected for it.

Variant G26K/K65H/D106L showed nd, 4.93, nd. Variant G26E/A101E/A102I showed nd, nd, nd. With G26I/F59W/G103S the result was nd, nd, nd. For G26M/Y60E/K65L, the assay gave 4.82, 3.61, 4.37 (mean 4.27). Variant G26M/I34F/Y60W gave 5.22, 3.56, 6.29 (mean 5.02). Variant G26Q/I51Q/K65P gave nd, 3.45, nd. For G26S/T28Y/K65C, the assay gave 3.06, 2.78, 3.77 (mean 3.21).

Variant G26V/T28L/G61M gave 3.90, nd, 4.45 (mean 4.18). Variant G26E/A101Q/A102G showed 1.24, 1.55, 1.44 (mean 1.41). For G26V/S53A/A102D, the assay gave nd, nd, nd. Variant G26K/L29A/G33A gave nd, 4.17, nd. Variant G26F/S35L/A102E showed nd, nd, nd. Variant G26T/R56C/R100W gave nd, nd, nd. Variant G26C/L29W/G103C showed 6.35, nd, nd.

With G26H/D54W/R56T the result was nd, nd, nd. For G26K/F27R/S53H, the assay gave 2.98, nd, nd. Variant G26R/F59P/D106M gave nd, nd, nd. For G26D/F105H, the assay gave 3.42, 2.61, nd (mean 3.02). Variant G26S/T58W showed nd, nd, nd. Variant G26R/F27N gave 1.60, 2.25, 2.11 (mean 1.99). Variant G26E/N30V/D54T showed nd, nd, nd.

Variant G26P/D54W/R100F showed nd, nd, nd. With G26R/S53F/R57F the result was 5.53, nd, nd. Variant G26R/F27H/S107M gave 1.04, 1.17, 1.62 (mean 1.28). Variant G26D/S35T/T104K gave 3.65, 4.68, nd (mean 4.16). For G26P/Y52S/F105S, the assay gave 2.92, 3.63, 3.02 (mean 3.19). With G26S/S63G/G99V the result was 4.01, 3.65, 5.11 (mean 4.26). Variant G26E/R56C/K65H gave 6.54, 4.44, 4.74 (mean 5.24).

With G26M/G61Q/V64H the result was nd, nd, 4.65. With G26D/V50A/F105L the result was nd, nd, nd. With G26Y/F27T/G99L the result was nd, 3.78, nd. For G26A/I34N/S35N, the assay gave nd, nd, nd. With G26E/L29S/V50A the result was nd, nd, nd. For G26S/Y52V/G99N, the assay gave 5.73, 4.56, nd (mean 5.14). With G26Y/D54F/F105D the result was nd, nd, nd.

Variant G26C/G33T/G99T gave nd, 4.60, nd. For G26W/L29P/D106Y, the assay gave nd, nd, nd. For G26L/Y60L/G103N, the assay gave 4.26, 4.55, nd (mean 4.40). For G26R/Y32N/S35L, the assay gave 1.32, 1.79, 1.73 (mean 1.61).

Extract of 3 entries:

With G26D/F105H the result was 3.42, 2.61, nd (mean 3.02).
With G26Y/D54F/F105D the result was nd, nd, nd.
With G26E/L29S/V50A the result was nd, nd, nd.